From patent US8901125B2, “Substituted bicyclic alkoxy pyrazole analogs as allosteric modulators of mGluR5 receptors” (Vanderbilt University, priority 2012, dated 2014) come the findings set out here.

The chains behind the UniProt entries cited, without tags or fusion partners. Residues count along the entry.
UniProt P41594, 21-1180 isoform 2 limits assumed: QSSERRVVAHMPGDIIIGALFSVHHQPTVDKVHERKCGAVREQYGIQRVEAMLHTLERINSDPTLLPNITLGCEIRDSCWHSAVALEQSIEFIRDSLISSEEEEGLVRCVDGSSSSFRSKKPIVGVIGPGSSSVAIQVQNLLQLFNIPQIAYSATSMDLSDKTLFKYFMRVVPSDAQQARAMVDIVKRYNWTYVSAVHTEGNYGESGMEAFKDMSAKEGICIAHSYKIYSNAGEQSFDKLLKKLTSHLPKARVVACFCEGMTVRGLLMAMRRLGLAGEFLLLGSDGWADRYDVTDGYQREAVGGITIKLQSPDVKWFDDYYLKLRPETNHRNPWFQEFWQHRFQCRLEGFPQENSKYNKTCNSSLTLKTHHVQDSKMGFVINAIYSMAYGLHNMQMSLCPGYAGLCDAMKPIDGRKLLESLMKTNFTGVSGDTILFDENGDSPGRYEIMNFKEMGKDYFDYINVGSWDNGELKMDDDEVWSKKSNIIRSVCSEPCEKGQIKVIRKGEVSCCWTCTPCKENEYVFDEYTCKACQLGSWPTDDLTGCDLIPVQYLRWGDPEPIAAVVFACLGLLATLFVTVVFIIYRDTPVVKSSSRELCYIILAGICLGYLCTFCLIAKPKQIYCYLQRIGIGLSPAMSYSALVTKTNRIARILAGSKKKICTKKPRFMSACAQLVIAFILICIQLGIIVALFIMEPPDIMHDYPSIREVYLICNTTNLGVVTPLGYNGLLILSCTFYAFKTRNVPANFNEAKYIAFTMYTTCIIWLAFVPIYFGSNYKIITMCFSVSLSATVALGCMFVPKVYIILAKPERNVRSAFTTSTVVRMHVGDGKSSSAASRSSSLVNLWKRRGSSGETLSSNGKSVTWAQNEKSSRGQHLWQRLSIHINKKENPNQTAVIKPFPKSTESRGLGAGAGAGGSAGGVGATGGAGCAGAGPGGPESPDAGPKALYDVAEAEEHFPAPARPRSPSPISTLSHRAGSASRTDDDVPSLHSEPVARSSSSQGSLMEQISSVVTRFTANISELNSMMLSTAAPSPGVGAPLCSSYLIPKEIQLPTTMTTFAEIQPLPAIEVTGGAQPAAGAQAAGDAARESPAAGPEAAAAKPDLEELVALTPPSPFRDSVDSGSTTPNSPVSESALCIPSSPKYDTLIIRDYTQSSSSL

The assay concerns the target human mGluR5a receptor (Homo sapiens, UniProt P41594). Nature of the assay: Cell-based functional assay (Ca2+ mobilization, FDSS), potentiation of glutamate EC20 response. The conditions noted are these: H10H cell line; for Emax (%): maximum % effect in the concentration-response curve as percent of maximal glutamate response, glutamate EC20; for pEC50: potentiation in presence of glutamate EC20, concentration in mol/L.

A value given as a limit tells only on which side of the number the result lay.

A word on the pEC50: it is the EC50 on a negative log10 scale, so that one unit is a factor of ten. For `O=C1c2cc(OCc3ccccc3)nn2CCN1Cc1cccc(F)c1`, the “Emax (%)” value is 49% and the pEC50 is reported as 7.11.
On the same counts, the results for `C[C@@H]1Cn2nc(OCc3ccccc3)cc2C(=O)N1c1ccc(F)cn1` are 50% and 5.63.
`COc1ccnc(N2CCn3nc(OCc4ccccc4)cc3C2=O)n1`: the “Emax (%)” value was 50% and the pEC50 is 6.07.
In the case of `COc1nccnc1N1CCn2nc(OCc3ccccc3)cc2C1=O`, the “Emax (%)” value amounted to 30% and the pEC50 was 6.03.
Regarding `O=C1c2cc(OCc3ccccc3)nn2CCN1Cc1ccccc1F`, the “Emax (%)” value came to 55% and the pEC50 is reported as 6.93.
For the compound `O=C1c2cc(OCc3ccccc3)nn2CCN1Cc1ccc(F)cc1`, the “Emax (%)” value was 62% and the pEC50 amounted to 6.48.
As for `CC1CN(c2ccc(F)cn2)C(=O)c2cc(OCc3ccccc3)nn21` (single isomer, unassigned), the “Emax (%)” value was determined as 51% and the negative logarithm of the EC50 (pEC50) is under 5.00.
Take `Cc1cccc(COc2cc3n(n2)CCN(c2ccc(F)cc2)C3=O)c1`: the “Emax (%)” value turned out to be 36% and the negative-log EC50 (pEC50) is on record as 7.10.
